Among the data in publication PMC2701369 are percent of total BIMEL co-immunoprecipitated with pVHL values, retold here.

By UniProt entry, the sequences of proteins in these tests, tags left out.
UniProt P40337, whole entry: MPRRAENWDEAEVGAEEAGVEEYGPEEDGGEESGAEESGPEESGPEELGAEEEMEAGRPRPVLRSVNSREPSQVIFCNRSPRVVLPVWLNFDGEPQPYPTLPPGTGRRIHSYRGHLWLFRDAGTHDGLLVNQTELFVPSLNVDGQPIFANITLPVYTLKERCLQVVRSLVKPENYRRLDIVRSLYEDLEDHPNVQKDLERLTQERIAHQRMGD
UniProt O43521, whole entry: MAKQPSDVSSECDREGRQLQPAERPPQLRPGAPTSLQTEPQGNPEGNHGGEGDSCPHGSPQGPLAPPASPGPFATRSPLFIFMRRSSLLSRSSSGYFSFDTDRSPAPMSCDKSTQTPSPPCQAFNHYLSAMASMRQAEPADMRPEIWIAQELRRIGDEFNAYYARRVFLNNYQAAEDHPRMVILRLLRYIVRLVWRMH

For this assay, the target named is wild type pVHL stably expressed in WT7 cells (human) (UniProt P40337). As to the kind of experiment: co-IP.

Take “endogenous BIMEL in WT7 cells (from UniProt O43521-1 1-198) (natural protein; other documents disagree on this pair)”: the percent of total BIMEL co-immunoprecipitated with pVHL was 2 to 5%.
